Data as given in US12054477B2, “Prodrug of pyrrolidone derivatives as glucokinase activator” (HUA MEDICINE (SHANGHAI) LTD., priority 2021, dated 2024).
Like-named read-outs stand apart in the source and are kept apart here.

Tests used:
[1] = Stability test of compounds in Simulated Gastric Fluid (SGF); format: in vitro ADME; settings: SGF pH about 1.20, 37° C., 2 μM
Protocol: Preparation of Simulated Gastric Fluid (SGF): Dissolve 0.04 g NaCl and 0.064 g pepsin in 0.14 mL HCl and add sufficient H2O to make the final volume to 20 mL. The pH of the test solution was about 1.20±0.05.

[2] = Simulated metabolic test of compounds in Human Intestine S9; format: in vitro ADME; settings: HIS9 0.5 mg/mL, 37° C., time point 0 min
Protocol: Preparation of Phosphate Buffer (PB): Dissolve 73.21 g K2TIPO4·3H2O (AR grade) and 10.78 g KH2PO4 (AR grade) in ultra-pure water to make the final volume to 4000 mL and the final concentration to 100 mM. The pH of the final test solution was adjusted to pH 7.40±0.10 with H3PO4/KOH.
Preparation of test compound working solution: 5 μL of test compound stock solution (10 mM in DMSO) were diluted with 995 μL of acetonitrile (ACN) to give a test compound working solution (intermediate solution concentration: 50 mM, 990 ACN)
The main materials of the test are shown in Table 4, and the parameters of preparation components of human intestinal S9 (HIS9) solution are shown in Table 5.
An Apricot automation workstation was used to add 50 μL/well of HIS9 solution to the corresponding wells of all reaction plates (blank, T0, T5, T15, T30, T45, T60).
Using an Apricot automation workstation, 2 μL/well of test compound working solution was added to the corresponding wells of all 96-well reaction plates except the blank (T0, T5, T15, T30, T45, T60).
An Apricot automation workstation was used to add 48 μL/well of PB to the corresponding wells of every reaction plate (Blank, T0, T5, T15, T30, T45, T60) to start the reaction.
The reaction plates were incubated at 37° C., and timer was started. […]

[3] = SIF pH about 6.80, 37° C., 2 μM
[4] = tested on: Caco-2 cells; test: Bi-directional permeability test using Caco-2 cells

CC(C)C[C@@H](C(=O)Nc1ccn(C[C@@H](O)COC(=O)c2cccnc2)n1)N1CC(Oc2ccccc2Cl)=CC1=O [Compound 3]
Remaining of Test Compound (%) ([1]; time point 0 hr): 100.00% | Remaining of Test Compound (%) ([1]; time point 1 hr): 90.35% | Remaining of Test Compound (%) ([1]; time point 2 hr): 95.99% | Remaining of Test Compound (%) ([1]; time point 6 hr): 90.10% | Remaining of Test Compound (%) ([1]; time point 24 hr): 89.48% | Remaining of Test Compound (%) [2]: 100% | Remaining of Test Compound (%) ([3]; time point 0 hr): 100.00% | Remaining of Test Compound (%) ([3]; time point 1 hr): 53.14% | Remaining of Test Compound (%) ([3]; time point 6 hr): 2.35% | Remaining of Test Compound (%) ([3]; time point 24 hr): 0.00% | Permeability from A to B (in words) [4]: low | Permeability from B to A (in words) [4]: high | Substrate for efflux transporters (in words) [4]: likely to be the substrate for efflux transporters
